The subject of the assay is DDAVP-induced hyponatremia in Sprague-Dawley rats. Particulars: rat, in vivo.

Turning to `Cc1ccccc1C(=O)Nc1ccc(C(=O)N2CCCC(O)c3cc(Cl)ccc32)c(C)c1` (stereo not shown) [tolvaptan], the “mean value for sodium (plasma)” value was found to be 137.6 ± 3.3 mM.

For the origin of these results see US12595288B2 (priority 2020, dated 2026).
